Source: article PMC4475797, “New Activity of a Protein from Canavalia ensiformis” (Scientia Pharmaceutica, 2014)

Target: T1, Concanavalin A (Con A) (Canavalia ensiformis, UniProt P02866)
T1 construct: purchased Sigma
Assay type: binding
Conditions: pH 6.8; read-out: Dissociation constants (KD) for the interaction
Method: Fluorescence spectra were recorded with a Shimadzu spectrofluorometer (Japan). The emission spectra of the tryptophan residues were recorded in a 1-cm quartz cell (Hellma Analytics, Germany). To avoid the measurement of the Tyr emission, the protein sample was excited at λ=295 nm with a slit width of 1.0 nm. Total fluorescence was calculated after the normalization of the fluorescence spectra and correction for dilution. In order to normalize the inner filter and self-absorption effects, the excitation was always carried out less than 0.05 OD. The spectra were recorded in a wavelength range of 300–500 nm. All studies were done at 25°C with the temperature of the samples measured in the cuvette with an accuracy of ± 0.2°C.
The protein-ligand interactions were investigated by monitoring changes in the intrinsic protein fluorescence emission (θexc=295 nm). We applied ideal fluorescence titration and incubation methods for their intrinsic sensitivity and simplicity. For this purpose, Con A (1.8 µM) was incubated at 4°C overnight with increasing concentrations of MnTMPyP, ZnTPPS, and FeTMPyP. […] Applied porphyrin concentrations were consistent with minimizing artifacts due to aggregation phenomena. Con A-adenine interactions were studied by overnight incubation (at 4°C). […]

“5,10,15,20-Tetrakis(4-sulfonatophenyl)-porphyrin-Au(III)chloride [AuTPPS]” showed a Kd of 490 ± 290 nM.
